Source: ChEMBL document CHEMBL3407375, “Substituted pyrrolidin-2-ones: Centrally acting orexin receptor antagonists promoting sleep. Part 2” (Bioorg Med Chem Lett, 2015)

Sequences of proteins named here, by UniProt entry; tags and fusion partners are left off.
UniProt O43614, whole entry: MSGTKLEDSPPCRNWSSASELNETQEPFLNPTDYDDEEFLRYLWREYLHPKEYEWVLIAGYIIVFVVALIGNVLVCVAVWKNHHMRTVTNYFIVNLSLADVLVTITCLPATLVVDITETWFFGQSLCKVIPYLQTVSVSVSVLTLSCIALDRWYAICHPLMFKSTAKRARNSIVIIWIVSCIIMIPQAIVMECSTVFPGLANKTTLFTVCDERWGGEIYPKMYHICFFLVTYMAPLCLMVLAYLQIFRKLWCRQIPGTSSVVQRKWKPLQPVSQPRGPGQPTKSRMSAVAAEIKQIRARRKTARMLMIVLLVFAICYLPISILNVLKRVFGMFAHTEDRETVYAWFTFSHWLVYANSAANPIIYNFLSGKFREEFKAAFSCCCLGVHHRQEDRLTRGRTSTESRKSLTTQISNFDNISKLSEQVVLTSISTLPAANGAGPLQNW
UniProt O43613, whole entry: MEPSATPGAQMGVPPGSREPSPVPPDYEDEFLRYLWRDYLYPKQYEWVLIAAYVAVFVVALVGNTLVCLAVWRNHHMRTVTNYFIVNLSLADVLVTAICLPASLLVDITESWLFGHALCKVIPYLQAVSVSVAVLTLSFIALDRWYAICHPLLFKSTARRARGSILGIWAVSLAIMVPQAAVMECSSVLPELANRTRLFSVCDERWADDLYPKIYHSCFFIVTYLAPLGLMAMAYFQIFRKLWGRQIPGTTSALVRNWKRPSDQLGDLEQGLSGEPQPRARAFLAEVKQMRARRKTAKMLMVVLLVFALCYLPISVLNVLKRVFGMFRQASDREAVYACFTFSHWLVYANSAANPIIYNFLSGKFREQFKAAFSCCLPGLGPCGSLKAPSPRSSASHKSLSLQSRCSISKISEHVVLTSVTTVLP

Experiments:
Orexin receptor type 2 [1] = biological target: T1, Orexin receptor type 2 (Homo sapiens, UniProt O43614); assay: Binding affinity to human OX2R
Orexin receptor type 2 [2] = biological target: T1, Orexin receptor type 2; assay: Antagonist activity at human orexin 2 receptor expressed in CHO cells assessed as inhibition of orexin-A-induced calcium mobilization by FLIPR assay; assay type: functional, cell-based
[3] = biological target: T2, Orexin/Hypocretin receptor type 1 (Homo sapiens, UniProt O43613); assay: Binding affinity to human OX1R
[4] = biological target: T2, Orexin/Hypocretin receptor type 1; assay: Antagonist activity at human orexin 1 receptor expressed in CHO cells assessed as inhibition of orexin-A-induced calcium mobilization by FLIPR assay; assay type: functional, cell-based

Compound | IC50 (Orexin receptor type 2 [1]) | IC50 (Orexin receptor type 2 [2]) | IC50 [3] | IC50 [4]
COc1cccc(F)c1[C@H]1C[C@H](O)C(=O)N1Cc1ccc2oc3ccccc3c2c1 |  | 1200 nM |  | 315 nM
COc1cccc(OC)c1[C@@H]1C[C@H](F)C(=O)N1Cc1ccc(OC(F)(F)F)cc1 (racemic) |  |  |  | 19 nM
COc1cccc(OC)c1[C@@H]1C[C@@H](F)C(=O)N1Cc1ccc(OC(F)(F)F)cc1 (racemic) |  |  |  | 242 nM
COc1cccc(OC)c1[C@@H]1C[C@H](O)C(=O)N1Cc1ccc(OC(F)(F)F)cc1 (racemic) |  |  |  | 670 nM
COc1cccc(OC)c1[C@@H]1C[C@@H](O)C(=O)N1Cc1ccc(OC(F)(F)F)cc1 (racemic) |  |  |  | 59 nM
COc1cccc(F)c1[C@@H]1C[C@H](Cl)C(=O)N1Cc1ccc2oc3ccccc3c2c1 (racemic) |  |  |  | 5 nM

Further lines, results first:

IC50 (Orexin receptor type 2 [1]) | IC50 (Orexin receptor type 2 [2]) | IC50 [3] | IC50 [4] | Compound
4 nM | 264 nM | 737 nM | 3 nM | COc1cccc(F)c1[C@@H]1C[C@@H](O)C(=O)N1Cc1ccc2oc3ccccc3c2c1
 | 467 nM |  | 5 nM | COc1cccc(F)c1C1C[C@@H](O)C(=O)N1Cc1ccc2oc3ccccc3c2c1 (mixture of isomers)
 |  |  | 2 nM | COc1cccc(OC)c1[C@@H]1C[C@H](F)C(=O)N1Cc1ccc2oc3ccccc3c2c1 (racemic)
 |  |  | 2 nM | COc1cccc(F)c1[C@@H]1C[C@H](F)C(=O)N1Cc1ccc2oc3ccccc3c2c1 (racemic)
